Tested on: cancer cells
Conditions: cancer cells versus normal cells

CCN(CC)CCCC(C)Nc1c2ccc(Cl)cc2nc2ccc(OC)cc12 (stereo not shown) [quinacrine]
Selective killing of cancer cells: selectively kills cancer cells but not normal cells
